Test [1] has as its target reuptake of serotonine (5-HT) in synaptosomes (Rattus norvegicus, UniProt P31652). The experiment in a line: Inhibition of 5-HT reuptake in synaptosomes. Particulars: read-out: 5-HT-uptake IC50, 3H-5-HT.
Test [2] concerns the target reuptake of dopamine (DA) in synaptosomes (Rattus norvegicus, UniProt P23977). Description: Inhibition of DA reuptake in synaptosomes. Particulars: read-out: DA-uptake IC50, 3H-DA.
Test [3] concerns the target reuptake of noradrenaline (NA) in synaptosomes (Rattus norvegicus, UniProt Q63380). Description: Inhibition of NA reuptake in synaptosomes. To be noted: read-out: NA-uptake IC50, 3H-NA.

Amino acid sequences for entries named in this document (tags omitted). Residues count along the entry.
UniProt P31652, whole entry, looked up: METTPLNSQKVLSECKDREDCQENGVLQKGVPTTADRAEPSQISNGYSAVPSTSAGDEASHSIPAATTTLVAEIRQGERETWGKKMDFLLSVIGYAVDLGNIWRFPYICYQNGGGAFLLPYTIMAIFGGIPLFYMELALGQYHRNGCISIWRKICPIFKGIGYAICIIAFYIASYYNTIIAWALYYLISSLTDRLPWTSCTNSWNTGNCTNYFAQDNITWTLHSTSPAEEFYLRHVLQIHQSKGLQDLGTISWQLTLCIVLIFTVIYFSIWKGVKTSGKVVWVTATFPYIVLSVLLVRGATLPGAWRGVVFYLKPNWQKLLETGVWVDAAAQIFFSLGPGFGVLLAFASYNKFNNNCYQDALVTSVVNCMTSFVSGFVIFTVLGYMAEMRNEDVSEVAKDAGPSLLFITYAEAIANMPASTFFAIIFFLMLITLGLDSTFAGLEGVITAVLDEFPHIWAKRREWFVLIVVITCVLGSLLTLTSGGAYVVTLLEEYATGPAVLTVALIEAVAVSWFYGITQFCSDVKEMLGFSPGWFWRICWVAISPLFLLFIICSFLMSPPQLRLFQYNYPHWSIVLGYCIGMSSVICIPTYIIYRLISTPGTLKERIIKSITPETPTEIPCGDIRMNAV
UniProt P23977, whole entry, looked up: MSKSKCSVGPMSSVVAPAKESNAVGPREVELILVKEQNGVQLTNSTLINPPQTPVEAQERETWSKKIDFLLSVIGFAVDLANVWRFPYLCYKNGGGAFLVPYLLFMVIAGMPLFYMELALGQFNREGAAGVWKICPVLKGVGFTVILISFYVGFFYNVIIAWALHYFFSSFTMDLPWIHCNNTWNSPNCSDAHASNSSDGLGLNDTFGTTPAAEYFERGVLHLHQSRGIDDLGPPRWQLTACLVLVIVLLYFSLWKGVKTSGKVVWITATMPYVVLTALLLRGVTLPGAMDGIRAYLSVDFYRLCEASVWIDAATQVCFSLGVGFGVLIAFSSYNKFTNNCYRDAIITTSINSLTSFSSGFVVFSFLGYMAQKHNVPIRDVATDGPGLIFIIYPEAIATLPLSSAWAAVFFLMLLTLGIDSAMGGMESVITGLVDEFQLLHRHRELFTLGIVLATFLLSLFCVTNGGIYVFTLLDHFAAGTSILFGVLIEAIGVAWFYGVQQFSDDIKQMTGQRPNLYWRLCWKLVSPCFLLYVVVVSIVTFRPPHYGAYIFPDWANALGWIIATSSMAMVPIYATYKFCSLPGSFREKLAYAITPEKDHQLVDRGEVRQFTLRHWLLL
UniProt Q63380, 1-617: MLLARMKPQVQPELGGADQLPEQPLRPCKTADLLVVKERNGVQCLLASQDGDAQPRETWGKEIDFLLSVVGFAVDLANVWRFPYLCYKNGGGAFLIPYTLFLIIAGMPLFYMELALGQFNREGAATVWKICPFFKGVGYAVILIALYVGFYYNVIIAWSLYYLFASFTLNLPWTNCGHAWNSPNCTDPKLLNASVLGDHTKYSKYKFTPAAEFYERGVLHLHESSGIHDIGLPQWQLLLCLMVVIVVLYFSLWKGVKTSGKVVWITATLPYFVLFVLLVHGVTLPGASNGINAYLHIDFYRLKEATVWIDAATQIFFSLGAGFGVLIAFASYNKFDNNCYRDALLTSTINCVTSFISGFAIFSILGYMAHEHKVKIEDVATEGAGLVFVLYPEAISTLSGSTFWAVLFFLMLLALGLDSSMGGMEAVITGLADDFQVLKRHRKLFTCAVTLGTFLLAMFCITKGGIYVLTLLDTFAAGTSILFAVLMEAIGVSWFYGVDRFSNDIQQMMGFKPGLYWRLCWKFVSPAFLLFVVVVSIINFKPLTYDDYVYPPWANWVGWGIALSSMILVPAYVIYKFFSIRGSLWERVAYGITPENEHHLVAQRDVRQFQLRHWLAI

Structures are written as SMILES.

The term IC50 denotes the concentration at which inhibition is half-maximal.

Regarding `CCC(=O)N(CC1CCNCC1)c1ccc(Cl)c(Cl)c1`, the values for the IC50 in test [1], in test [2] and in test [3] were 6.6 nM, 86 nM and 7.2 nM, respectively.
`CCC(=O)N(CC1CCNCC1)c1ccc2cc(O)ccc2c1`: the IC50 in test [1] stood at 47 nM; in test [2] it was 490 nM; in test [3] it was 8.1 nM.

For the origin of these results see patent publication US20100204275A1 (published 2010).
